Test results taken from publication PMC8171112 (Bioorganic & medicinal chemistry, 2021).

Target: T1, catalytic domain of TET2 (TET2CD) (Homo sapiens, UniProt Q6N021)
T1 sequence (Q6N021 with tags, fused parts or gaps limits assumed): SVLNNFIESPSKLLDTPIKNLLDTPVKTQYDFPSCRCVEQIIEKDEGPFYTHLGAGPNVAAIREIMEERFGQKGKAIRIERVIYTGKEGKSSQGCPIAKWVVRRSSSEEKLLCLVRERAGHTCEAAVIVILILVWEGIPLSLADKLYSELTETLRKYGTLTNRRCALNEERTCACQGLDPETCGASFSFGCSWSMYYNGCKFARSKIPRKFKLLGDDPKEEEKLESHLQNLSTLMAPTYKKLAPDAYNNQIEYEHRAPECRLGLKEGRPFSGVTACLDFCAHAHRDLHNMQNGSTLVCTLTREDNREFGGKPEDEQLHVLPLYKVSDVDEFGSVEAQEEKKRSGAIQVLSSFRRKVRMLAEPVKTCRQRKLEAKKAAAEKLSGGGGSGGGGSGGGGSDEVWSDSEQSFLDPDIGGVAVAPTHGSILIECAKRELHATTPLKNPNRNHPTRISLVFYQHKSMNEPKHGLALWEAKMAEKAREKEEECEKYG
Assay: ELISA of 5hmC for TET2 activity, cell free
Format: biochemical
Settings: Figure 5A

Compound: O=C(O)CCC(=O)C(=O)O [α-KG, α-ketoglutarate, reference compound]
- concentration saturating the dioxygenase activity of TET2CD: 20 µM
